# Values quoted from earlier work in paper PMC10494213 (iScience, 2023).
# Details: pH = 7.4; ref http://www.chemspider.com/Chemical; cited from earlier work
smiles,measurement,value
"NC(=O)N1c2ccccc2C=Cc2ccccc21 [CMZ, Carbamazepine]",log Kow,2.77
